Measurements published in PubChem BioAssay AID2177 (The Scripps Research Institute Molecular Screening Center, 2009).
The list shows a part of the results, in another mix than the full data. Some tests of the compounds listed are not included; inactive here does not mean inactive elsewhere. The source made the active and inactive calls.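 Rule for the calls: active = inhibition above the screen-wide mean plus 3 SD, limit set per campaign (cut at about 26% in these data); inactive = the rest.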

Chains of the proteins cited; added tags and fusions are not shown.
UniProt O95372, whole entry: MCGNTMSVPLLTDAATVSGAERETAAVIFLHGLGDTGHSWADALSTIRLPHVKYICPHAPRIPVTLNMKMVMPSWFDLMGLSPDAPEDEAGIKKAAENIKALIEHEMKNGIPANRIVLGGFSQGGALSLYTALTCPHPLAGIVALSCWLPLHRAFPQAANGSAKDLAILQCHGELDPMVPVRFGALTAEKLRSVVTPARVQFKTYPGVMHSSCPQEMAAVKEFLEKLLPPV

Target: Acyl-protein thioesterase 2 (Homo sapiens) (UniProt O95372)
Experiment: inhibition of human lysophospholipase 2 – biochemical, fluorescence polarization, FP-Rh probe ABPP, counter-screen for PME1 inhibitor project, primary screen (AID 2177);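 note: 0% = LYPLA2 with DMSO and 100% = wells lacking LYPLA2 enzyme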
Details: recombinant LYPLA2, FP-Rh probe fluorescence polarization; at 5.9 µM; stronger effect = higher value

SMILES | inhibition
CN(C)C1(CNC(=O)c2ccc(Br)cc2)CCCCC1 | inactive: 5.46%
COc1cc(C(=O)NCC2(N(C)C)CCCCC2)c([N+](=O)[O-])cc1OC | inactive: 0.87%
COc1cccc(C(=O)NCC2(N3CCCCC3)CCCCC2)c1 | inactive: 6.3%
COc1ccc(Cl)cc1C(=O)NCC1(N(C)C)CCCCC1 | inactive: 1.55%
O=C(NCC1(N2CCCCC2)CCCCC1)c1cccc(Cl)c1 | inactive: -7.26%
O=C(OC1CN2CCC1CC2)C(CO)(c1ccccc1)c1ccccc1 (centres undefined) | inactive: -3.76%
COc1ccc(Br)c(C(=O)NCC2(N3CCCCC3)CCCCC2)c1 | inactive: 2.84%
CC(C)Oc1ccc(C(=O)NCC2(N(C)C)CCCCC2)cc1 | inactive: 0.85%
CN(C)c1cccc(C(=O)NCC2(N(C)C)CCCCC2)c1 | inactive: 4.6%
O=C(NCC1(N2CCCCC2)CCCCC1)c1cc([N+](=O)[O-])ccc1Cl | inactive: 2.3%
CN1[C@@H]2CC[C@H]1CC(OC(=O)C(O)(c1ccccc1)c1ccccc1)C2 (some centres undefined) | inactive: -2.49%
CCN(CC)CC(C)C(C)OC(=O)C(O)(c1ccccc1)c1ccccc1 (centres undefined) | inactive: 4.55%
COc1cc(SC)ccc1C(=O)NCC1(N(C)C)CCCCC1 | inactive: 2.83%
CC(C)N1C(=O)CC2(CCN(CCOC(=O)C(O)(c3ccccc3)c3ccccc3)CC2)C1=O | inactive: -2.52%
Cc1ccc(C(=O)NCC2(N3CCCCC3)CCCCC2)cc1 | inactive: -0.54%
Cc1ccccc1C(=O)NCC1(N2CCCCC2)CCCCC1 | inactive: -1.98%
CN(C)C1CCCC1OC(=O)C(O)(c1ccccc1)c1ccccc1 (centres undefined) | inactive: 6.46%
CN(C)c1ccc(C(=O)NCC2(N(C)C)CCCCC2)cc1 | inactive: 5.46%
C=CCN1CCN(CCOC(=O)C(O)(c2ccccc2)c2ccccc2)CC1 | inactive: 5.09%
O=C(NCC1(N2CCCCC2)CCCCC1)c1cc(F)c(F)cc1Cl | inactive: 3.08%
COc1ccc(C(=O)NCC2(N(C)C)CCCCC2)cc1 | inactive: 2.1%
Cc1cc(C(=O)NCC2(N3CCCCC3)CCCCC2)ccc1[N+](=O)[O-] | inactive: -5.42%
CCN1CCCC(OC(=O)C2(O)c3ccccc3C=Cc3ccccc32)C1 (centres undefined) | inactive: -9.25%
O=C(NCC1(N2CCCCC2)CCCCC1)c1cccc(Br)c1 | inactive: -3.63%
